Screening results deposited in PubChem by several laboratories.
PKA-R1A act: PKA-R1A complex activation; P00514+P68181; PKA-R1A dissociation, Cy5-IP20 fluorescence polarization; scaled: DMSO 0%, 113 µM cGMP 100%; activation, % at 11.4 µM; 340,000 compounds, 0.083% hits; AID 504707;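 active = percent activation above the mean of all tested compounds plus 3 SD, cut at about 19% in these data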;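 note: higher means more PKAc released from R1A so a rise in polarization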
Exocytosis inh: lytic granule exocytosis inhibition | TALL-104 LAMP-1 surface exposure, flow cytometry; cells stimulated with thapsigargin and PMA | inhibition, % at 10 µM | 360,000 compounds, 0.66% hits;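 active = inhibition above about 55%, limit read from the data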
PKA-R2B act: activates the human PKA-R2B holoenzyme complex. P22694+P31323. PKA-R2B holoenzyme dissociation, Cy5-IP20 fluorescence polarization; R2B truncated from residue 108, S112A mutant; 0% DMSO only, 100% 113 µM cGMP. activation, % at 11.4 µM. 340,000 compounds, 0.079% hits. AID 504700;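 active = activation above a cutoff set at the mean over all compounds plus 3 SD, cut at about 18% in these data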;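 note: higher means more holoenzyme dissociation and a rise in polarization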
pCIP destab: p/CIP protein destabilization | F442A p/CIP-EGFP cells, EGFP fluorescence, 16 h | AID 1984 | decrease of EGFP signal, % at 10 µM | 290,000 compounds, 0.01% hits | Q05BA5;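 active = EGFP signal decrease of at least 30% at 10 µM or well 3 SD below plate mean, unless failing retest; inactive = the rest, including hits failing retest or dose response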
UUG fidelity: modulators of start codon recognition fidelity in yeast. activity score, % at 18.7 µM. S. cerevisiae UUG-firefly luciferase reporter, luminescence/redox ratio. 350,000 compounds, 0.13% hits;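 active means replicate mean at a twofold rise or more, about +100% in these data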;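 further: firefly luciferase made from a UUG start codon reports start codon fidelity; reporter light over untreated wells divided by growth signal over untreated wells; some hits fall short of that in this replicate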
ABCB6 inh MLPCN: inhibitors of human ABC transporter ABCB6; Q9NP58; K562-ABCB6 porphyrin accumulation, flow cytometry, 1 h; stronger effect = lower value; fluorescence ratio to DMSO, % at 10 µM; 360,000 compounds, 0.19% hits;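 active = fluorescence ratio to DMSO below 75%, the collection mean minus 3 SD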;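 note: signal is porphyrin accumulated inside mitochondria; 100% equals median channel fluorescence of DMSO control wells; lower ratio means ABCB6 inhibition with less porphyrin fluorescence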
R1A FP artifact: fluorescence polarization artifact in PKA-R1A activator counter-screen; shares compounds with PKA-R1A act; Cy5-IP20 peptide alone, fluorescence polarization artifact counterscreen; activation, % at 11.4 µM; 280 compounds, 7% hits; AID 504799;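 active = mean activation over triplicate runs exceeds the adjusted cutoff derived for the parent primary screen, cut at about 19% in these data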;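 note: no PKA protein present so any polarization rise reflects compound interference; 0% = tracer peptide mix alone and 100% = mix with added PKA catalytic subunit; higher means stronger polarization artifact and likely false positive in parent screen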
PKA-R1A act conf: PKA-R1A complex activation, confirmation. shares compounds with PKA-R1A act. Cy5-IP20 fluorescence polarization, PKA-R1A holoenzyme dissociation. activation, % at 11.4 µM. 280 compounds, 9% hits;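 active = mean activation over replicate wells exceeds the adjusted hit threshold taken from the earlier primary screen, cut at about 20% in these data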;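 note: 0% = holoenzyme mix with DMSO only and 100% = cGMP-activated control wells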
ABCB6 blocker 1: blocks the human ABCB6 transporter | shares compounds with ABCB6 inh MLPCN | K562-ABCB6 porphyrin accumulation, flow cytometry, 1 h; stronger effect = lower value | ratio response (% of DMSO), % at 10 µM | 700 tested, under 10 active | AID 602430;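 active = repeat-averaged ratio response below 75% of DMSO, the collection mean minus 3 SD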;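 note: median porphyrin fluorescence at 575 nm with 488 nm excitation from mitochondria; lower ratio means less porphyrin signal so ABCB6 inhibition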
The depositor's hits bear a star. An excerpt weighted towards active compounds, which were near 0.94% of everything screened.

For COc1ccc(NP2(=O)OCC(C)(N)CO2)cc1 (stereo not drawn) the results were PKA-R1A act 20*, Exocytosis inh -3, PKA-R2B act 6, ABCB6 inh MLPCN 96, R1A FP artifact -1 and PKA-R1A act conf -1.
CC1([N+](=O)[O-])COP(=O)(Nc2ccccc2F)OC1 (stereo not drawn) was read as PKA-R1A act -6, Exocytosis inh -6, PKA-R2B act 1 and ABCB6 inh MLPCN 94.
`Cc1nonc1OCCNc1ccc([N+](=O)[O-])c2cccnc12` gave PKA-R1A act -5, Exocytosis inh 5, PKA-R2B act -5, pCIP destab -4, ABCB6 inh MLPCN 72* and ABCB6 blocker 1 112.
`COc1cccc(N2C(=O)CC(=O)NC2=O)c1` gave PKA-R1A act -7, Exocytosis inh -1, PKA-R2B act -1, pCIP destab -6, UUG fidelity 2, ABCB6 inh MLPCN 71* and ABCB6 blocker 1 102.
For CCC(=O)c1cn(Cc2ccccc2)c2ccccc12 the results were PKA-R1A act 11, Exocytosis inh 1, PKA-R2B act 5, pCIP destab -12, UUG fidelity 1 and ABCB6 inh MLPCN 97.
CN(C)CCOC(=O)c1cn(Cc2ccccc2)c2ccccc12 was read as PKA-R1A act -23, Exocytosis inh -2, PKA-R2B act -11, pCIP destab -4, UUG fidelity -2, ABCB6 inh MLPCN 7.0* and ABCB6 blocker 1 95.
Screening CCCCn1c(O)c(C=NCCCn2ccnc2)c(=O)[nH]c1=O returned PKA-R1A act -1, Exocytosis inh -1, PKA-R2B act 1, pCIP destab 9 and ABCB6 inh MLPCN 100.
CC(C)CCCn1c(O)c(/C=C2/C=CC=N2)c(=O)[nH]c1=O was read as PKA-R1A act -5, Exocytosis inh 4, PKA-R2B act -2, pCIP destab -14, ABCB6 inh MLPCN 70* and ABCB6 blocker 1 102.
Screening COC(=O)[C@@H]1[C@@H](CO)[C@@H]2Cn3c(ccc(/C=C/c4ccccc4)c3=O)[C@H]1N2C(=O)C1CCC1 returned UUG fidelity 6.
For COc1cccc(C(c2nnnn2Cc2ccccc2)N2CCC(n3c(=O)[nH]c4ccccc43)CC2)c1OC (stereo not drawn) the results were Exocytosis inh 2, UUG fidelity -8, ABCB6 inh MLPCN 74* and ABCB6 blocker 1 96.

Two entries picked at random from the list so far, as already listed:
Screening COC(=O)[C@@H]1[C@@H](CO)[C@@H]2Cn3c(ccc(/C=C/c4ccccc4)c3=O)[C@H]1N2C(=O)C1CCC1 returned UUG fidelity 6.
`COc1cccc(N2C(=O)CC(=O)NC2=O)c1` gave PKA-R1A act -7, Exocytosis inh -1, PKA-R2B act -1, pCIP destab -6, UUG fidelity 2, ABCB6 inh MLPCN 71* and ABCB6 blocker 1 102.

The results go on:
CCOc1ccc(C(C)=O)cc1Cc1c(O)[nH]c(=S)[nH]c1=O was read as PKA-R1A act -3, Exocytosis inh -4, PKA-R2B act -5, pCIP destab -1, UUG fidelity -30 and ABCB6 inh MLPCN 102.
Screening COc1ccc(C(C)=O)cc1Cc1c(O)[nH]c(=S)[nH]c1=O returned PKA-R1A act 1, Exocytosis inh -11, PKA-R2B act -9, pCIP destab -9, UUG fidelity -2, ABCB6 inh MLPCN 65* and ABCB6 blocker 1 102.
COC(=O)[C@H]1[C@H](CO)[C@H]2Cn3c(ccc(C4=CCCCC4)c3=O)[C@@H]1N2Cc1ccccn1 was read as UUG fidelity -3.
N#Cc1cccc(-c2ccc([C@H]3[C@@H](CO)N4CCCCN(C(=O)Cc5ccccc5)C[C@H]34)cc2)c1 was read as UUG fidelity -4.
For O=C(Nc1ccccc1Cl)OC1CN2CCC1CC2 (stereo not drawn) the results were PKA-R1A act 3, Exocytosis inh 0, PKA-R2B act 5, pCIP destab 6 and ABCB6 inh MLPCN 96.
